Reference: patent publication US11124554B2, “Modified ligand-gated ion channels and methods of use” (Howard Hughes Medical Institute, priority 2016, dated 2021)
Read-outs that look alike come from different tables or passages of the source.

Amino acid sequences for entries named in this document (tags omitted). Chains listed by the source or under a name are the forms on record and can include a tag or linker. Residues count along the entry.
UniProt P36544, with tags, fused parts or gaps L131F: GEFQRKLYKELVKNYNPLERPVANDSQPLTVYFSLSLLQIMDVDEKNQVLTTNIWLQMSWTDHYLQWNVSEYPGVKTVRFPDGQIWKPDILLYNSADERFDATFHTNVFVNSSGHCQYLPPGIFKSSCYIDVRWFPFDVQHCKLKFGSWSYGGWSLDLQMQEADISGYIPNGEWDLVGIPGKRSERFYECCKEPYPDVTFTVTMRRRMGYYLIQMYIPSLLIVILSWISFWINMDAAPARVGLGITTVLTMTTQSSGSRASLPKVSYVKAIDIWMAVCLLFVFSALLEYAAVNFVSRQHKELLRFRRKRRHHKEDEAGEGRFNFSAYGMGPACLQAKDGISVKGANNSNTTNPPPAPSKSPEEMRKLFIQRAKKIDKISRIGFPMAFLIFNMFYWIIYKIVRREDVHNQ
UniProt P36544, with tags, fused parts or gaps L131G/Q139L/Y217F: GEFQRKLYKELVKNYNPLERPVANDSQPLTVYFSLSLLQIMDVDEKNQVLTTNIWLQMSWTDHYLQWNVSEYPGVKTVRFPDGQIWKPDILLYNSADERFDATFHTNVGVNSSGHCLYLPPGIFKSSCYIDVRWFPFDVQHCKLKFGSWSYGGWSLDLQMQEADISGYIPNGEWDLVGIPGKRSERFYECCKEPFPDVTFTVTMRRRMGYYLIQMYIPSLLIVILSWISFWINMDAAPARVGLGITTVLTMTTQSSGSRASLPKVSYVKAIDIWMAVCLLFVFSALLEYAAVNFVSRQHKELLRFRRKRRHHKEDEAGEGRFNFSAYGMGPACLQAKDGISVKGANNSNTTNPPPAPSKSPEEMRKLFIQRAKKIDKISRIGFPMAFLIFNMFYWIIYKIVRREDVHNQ
UniProt P36544, with tags, fused parts or gaps L131Q: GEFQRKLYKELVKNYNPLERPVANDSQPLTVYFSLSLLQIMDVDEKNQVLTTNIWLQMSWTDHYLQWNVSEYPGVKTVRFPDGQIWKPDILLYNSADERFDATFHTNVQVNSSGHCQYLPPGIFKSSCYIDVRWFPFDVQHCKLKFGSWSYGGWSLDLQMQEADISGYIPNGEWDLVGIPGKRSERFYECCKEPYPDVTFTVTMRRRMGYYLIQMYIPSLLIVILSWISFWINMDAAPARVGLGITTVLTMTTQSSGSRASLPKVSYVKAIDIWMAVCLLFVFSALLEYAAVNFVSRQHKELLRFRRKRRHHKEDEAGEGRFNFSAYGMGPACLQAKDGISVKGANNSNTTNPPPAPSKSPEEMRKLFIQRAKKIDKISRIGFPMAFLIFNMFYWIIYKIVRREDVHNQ
UniProt P36544, with tags, fused parts or gaps L131M: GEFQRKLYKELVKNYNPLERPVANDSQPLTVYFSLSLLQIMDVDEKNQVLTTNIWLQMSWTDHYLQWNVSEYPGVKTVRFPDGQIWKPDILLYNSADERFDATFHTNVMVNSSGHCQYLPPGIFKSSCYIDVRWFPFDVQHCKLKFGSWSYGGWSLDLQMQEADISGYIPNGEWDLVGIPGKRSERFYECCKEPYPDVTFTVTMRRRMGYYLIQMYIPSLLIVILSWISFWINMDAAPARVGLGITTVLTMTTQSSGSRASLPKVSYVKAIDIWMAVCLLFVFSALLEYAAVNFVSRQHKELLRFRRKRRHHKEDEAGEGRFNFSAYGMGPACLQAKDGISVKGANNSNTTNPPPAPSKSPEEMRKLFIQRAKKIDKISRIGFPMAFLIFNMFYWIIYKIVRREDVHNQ
UniProt P36544, with tags, fused parts or gaps L131N: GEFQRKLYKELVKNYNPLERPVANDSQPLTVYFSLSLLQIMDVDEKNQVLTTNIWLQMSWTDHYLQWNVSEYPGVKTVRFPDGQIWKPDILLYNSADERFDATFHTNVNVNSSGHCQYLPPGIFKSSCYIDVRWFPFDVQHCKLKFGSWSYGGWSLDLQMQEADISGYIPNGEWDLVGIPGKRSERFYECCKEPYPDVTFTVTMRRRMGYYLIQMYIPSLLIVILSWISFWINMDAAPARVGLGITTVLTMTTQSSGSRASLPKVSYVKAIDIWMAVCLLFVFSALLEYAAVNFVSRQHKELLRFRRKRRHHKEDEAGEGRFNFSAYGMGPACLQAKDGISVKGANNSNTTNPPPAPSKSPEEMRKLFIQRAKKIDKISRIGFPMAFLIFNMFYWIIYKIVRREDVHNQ
UniProt P36544, with tags, fused parts or gaps Q79S/L131G/Q139L/Y217F: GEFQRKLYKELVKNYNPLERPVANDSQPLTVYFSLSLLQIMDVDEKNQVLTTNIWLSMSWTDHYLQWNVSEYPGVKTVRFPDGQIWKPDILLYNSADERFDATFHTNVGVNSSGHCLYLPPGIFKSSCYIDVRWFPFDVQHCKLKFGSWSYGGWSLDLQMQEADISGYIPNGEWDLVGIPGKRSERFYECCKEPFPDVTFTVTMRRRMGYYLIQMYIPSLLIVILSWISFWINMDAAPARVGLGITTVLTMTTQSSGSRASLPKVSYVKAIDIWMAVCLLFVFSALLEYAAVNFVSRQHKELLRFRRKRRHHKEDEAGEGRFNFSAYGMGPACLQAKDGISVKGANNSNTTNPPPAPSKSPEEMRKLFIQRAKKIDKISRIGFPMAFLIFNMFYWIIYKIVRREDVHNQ
UniProt P36544, with tags, fused parts or gaps L131G/Q139L/Y217F/T225I/M226I limits assumed: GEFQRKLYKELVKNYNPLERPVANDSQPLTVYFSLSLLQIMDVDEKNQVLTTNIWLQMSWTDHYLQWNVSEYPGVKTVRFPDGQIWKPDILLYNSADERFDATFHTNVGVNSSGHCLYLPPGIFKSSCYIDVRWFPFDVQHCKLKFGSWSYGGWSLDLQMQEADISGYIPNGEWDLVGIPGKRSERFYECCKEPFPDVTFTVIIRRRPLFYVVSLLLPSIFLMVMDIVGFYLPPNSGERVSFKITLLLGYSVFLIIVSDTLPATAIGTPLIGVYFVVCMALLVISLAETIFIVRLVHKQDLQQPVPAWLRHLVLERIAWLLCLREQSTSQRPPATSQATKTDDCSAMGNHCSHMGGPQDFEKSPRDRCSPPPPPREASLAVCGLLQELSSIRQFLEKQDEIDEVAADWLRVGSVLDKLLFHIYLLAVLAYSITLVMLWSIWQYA
UniProt P36544, with tags, fused parts or gaps: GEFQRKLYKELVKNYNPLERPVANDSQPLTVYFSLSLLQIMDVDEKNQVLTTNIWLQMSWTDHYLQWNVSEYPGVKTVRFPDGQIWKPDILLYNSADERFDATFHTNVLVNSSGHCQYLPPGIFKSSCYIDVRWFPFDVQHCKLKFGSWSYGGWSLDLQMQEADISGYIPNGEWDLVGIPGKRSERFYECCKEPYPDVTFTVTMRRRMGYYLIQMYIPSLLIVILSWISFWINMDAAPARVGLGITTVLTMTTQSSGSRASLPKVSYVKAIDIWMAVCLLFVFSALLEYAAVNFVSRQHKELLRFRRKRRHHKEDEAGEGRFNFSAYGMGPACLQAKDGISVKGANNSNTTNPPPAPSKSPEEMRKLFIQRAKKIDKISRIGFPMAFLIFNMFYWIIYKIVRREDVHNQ
UniProt P36544, with tags, fused parts or gaps W77F/Q79G/G175K: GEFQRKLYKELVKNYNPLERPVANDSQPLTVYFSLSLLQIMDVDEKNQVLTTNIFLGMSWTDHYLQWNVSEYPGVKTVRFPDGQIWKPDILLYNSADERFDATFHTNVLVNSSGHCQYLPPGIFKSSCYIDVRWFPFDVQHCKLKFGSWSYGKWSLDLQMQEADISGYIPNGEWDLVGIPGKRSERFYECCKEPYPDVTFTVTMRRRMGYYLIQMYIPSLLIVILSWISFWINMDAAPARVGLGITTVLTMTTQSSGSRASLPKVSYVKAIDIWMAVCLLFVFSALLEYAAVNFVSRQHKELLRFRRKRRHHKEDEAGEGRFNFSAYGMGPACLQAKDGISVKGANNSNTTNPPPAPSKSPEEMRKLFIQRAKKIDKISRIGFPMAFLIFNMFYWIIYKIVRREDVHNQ
UniProt P36544, with tags, fused parts or gaps Y115F/G175K: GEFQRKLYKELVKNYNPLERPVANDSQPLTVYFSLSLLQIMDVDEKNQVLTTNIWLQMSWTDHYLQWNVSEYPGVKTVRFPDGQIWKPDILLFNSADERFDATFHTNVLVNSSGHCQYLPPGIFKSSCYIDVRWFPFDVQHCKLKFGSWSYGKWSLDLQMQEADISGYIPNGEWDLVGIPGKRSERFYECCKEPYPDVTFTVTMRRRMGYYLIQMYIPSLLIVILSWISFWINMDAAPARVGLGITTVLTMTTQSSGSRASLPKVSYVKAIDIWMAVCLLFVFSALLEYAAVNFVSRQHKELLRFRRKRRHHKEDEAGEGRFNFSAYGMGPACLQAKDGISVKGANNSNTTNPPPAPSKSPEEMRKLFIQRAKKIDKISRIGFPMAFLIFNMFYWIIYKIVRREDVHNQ
UniProt P36544, with tags, fused parts or gaps Q79G/Y115F/G175K: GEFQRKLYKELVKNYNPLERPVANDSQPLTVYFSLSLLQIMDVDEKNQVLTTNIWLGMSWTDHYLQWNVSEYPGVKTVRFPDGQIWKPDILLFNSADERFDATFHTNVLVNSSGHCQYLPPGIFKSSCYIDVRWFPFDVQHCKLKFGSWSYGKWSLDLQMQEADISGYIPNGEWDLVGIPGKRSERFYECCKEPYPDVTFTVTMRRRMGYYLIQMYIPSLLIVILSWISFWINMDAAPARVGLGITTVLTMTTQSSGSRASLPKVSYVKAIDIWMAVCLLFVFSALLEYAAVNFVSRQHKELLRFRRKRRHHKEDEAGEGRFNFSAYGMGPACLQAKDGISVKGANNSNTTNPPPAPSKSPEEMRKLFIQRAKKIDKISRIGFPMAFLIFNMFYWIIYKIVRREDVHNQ
UniProt P36544, with tags, fused parts or gaps L131G: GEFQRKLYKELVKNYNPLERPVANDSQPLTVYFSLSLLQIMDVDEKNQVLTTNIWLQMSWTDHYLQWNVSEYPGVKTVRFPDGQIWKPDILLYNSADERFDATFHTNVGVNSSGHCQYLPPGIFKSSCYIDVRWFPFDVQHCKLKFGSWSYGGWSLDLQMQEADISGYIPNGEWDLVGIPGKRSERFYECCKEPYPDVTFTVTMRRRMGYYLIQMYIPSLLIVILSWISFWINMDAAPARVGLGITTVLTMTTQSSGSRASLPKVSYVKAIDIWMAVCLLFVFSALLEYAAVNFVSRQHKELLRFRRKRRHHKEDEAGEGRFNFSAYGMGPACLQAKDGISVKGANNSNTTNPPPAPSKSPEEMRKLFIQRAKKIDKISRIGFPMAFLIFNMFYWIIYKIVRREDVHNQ
UniProt P36544, with tags, fused parts or gaps T225I/M226I: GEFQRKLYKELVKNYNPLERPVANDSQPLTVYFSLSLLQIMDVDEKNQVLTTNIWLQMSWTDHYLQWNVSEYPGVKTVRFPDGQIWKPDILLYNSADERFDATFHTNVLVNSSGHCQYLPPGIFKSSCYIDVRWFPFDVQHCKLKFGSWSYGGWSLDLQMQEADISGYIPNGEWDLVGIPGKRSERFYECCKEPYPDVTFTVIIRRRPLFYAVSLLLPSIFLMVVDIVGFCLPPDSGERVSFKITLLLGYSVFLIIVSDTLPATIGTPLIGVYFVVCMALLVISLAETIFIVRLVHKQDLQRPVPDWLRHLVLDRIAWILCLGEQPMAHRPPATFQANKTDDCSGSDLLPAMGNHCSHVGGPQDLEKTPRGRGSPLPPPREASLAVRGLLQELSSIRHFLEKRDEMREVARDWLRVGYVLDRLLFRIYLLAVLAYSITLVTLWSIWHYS
UniProt P36544, with tags, fused parts or gaps, stated change not applied: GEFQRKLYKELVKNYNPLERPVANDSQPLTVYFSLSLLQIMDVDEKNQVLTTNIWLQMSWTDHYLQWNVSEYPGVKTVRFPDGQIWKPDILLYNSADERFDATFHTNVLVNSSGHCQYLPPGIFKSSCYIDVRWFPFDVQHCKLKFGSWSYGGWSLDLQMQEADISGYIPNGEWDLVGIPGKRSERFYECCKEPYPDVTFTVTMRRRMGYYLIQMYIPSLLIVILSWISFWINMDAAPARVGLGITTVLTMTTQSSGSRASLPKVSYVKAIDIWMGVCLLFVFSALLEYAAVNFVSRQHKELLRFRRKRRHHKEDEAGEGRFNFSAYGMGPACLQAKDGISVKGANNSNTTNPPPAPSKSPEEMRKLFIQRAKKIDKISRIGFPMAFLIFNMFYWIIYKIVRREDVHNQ
UniProt P36544, with tags, fused parts or gaps L131G/Q139L: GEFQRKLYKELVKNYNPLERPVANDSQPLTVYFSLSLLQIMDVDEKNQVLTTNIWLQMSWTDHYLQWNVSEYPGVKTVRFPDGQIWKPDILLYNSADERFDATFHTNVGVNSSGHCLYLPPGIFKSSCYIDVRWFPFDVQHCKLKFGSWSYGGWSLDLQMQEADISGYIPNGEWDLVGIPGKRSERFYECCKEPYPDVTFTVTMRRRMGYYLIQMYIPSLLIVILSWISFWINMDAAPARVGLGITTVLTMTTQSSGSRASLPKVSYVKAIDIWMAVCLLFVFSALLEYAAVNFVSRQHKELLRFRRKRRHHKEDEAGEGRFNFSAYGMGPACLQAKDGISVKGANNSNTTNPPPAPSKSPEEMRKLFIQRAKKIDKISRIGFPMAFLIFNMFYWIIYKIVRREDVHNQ
UniProt P36544, 23-224 L131G limits assumed: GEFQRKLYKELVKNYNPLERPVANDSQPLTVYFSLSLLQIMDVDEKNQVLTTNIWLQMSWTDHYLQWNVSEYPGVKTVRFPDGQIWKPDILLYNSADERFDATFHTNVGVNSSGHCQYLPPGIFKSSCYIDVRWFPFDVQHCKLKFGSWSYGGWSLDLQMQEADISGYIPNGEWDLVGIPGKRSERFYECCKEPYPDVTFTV

Tests used:
[1] = target: T1, α7^L131F-GlyR (Homo sapiens, UniProt P36544, L131F); assay: Agonist potency at chimeric channel (Table 9); type: cell-based; conditions: α7GlyR L131F
T1 construct: expressed in transfected cells

[2] = target: T2, α7^L131G,Q139L,Y217F-GlyR (Homo sapiens, UniProt P36544, L131G/Q139L/Y217F); type: cell-based
T2 construct: expressed in transfected cells

[3] = target: T3, α7^L131Q-GlyR (Homo sapiens, UniProt P36544, L131Q); assay: Agonist potency at chimeric channel (Table 9); type: cell-based; conditions: α7GlyR L131Q
T3 construct: expressed in transfected cells

[4] = target: T4, α7^L131M-GlyR (Homo sapiens, UniProt P36544, L131M); assay: Agonist potency at chimeric channel (Table 9); type: cell-based; conditions: α7GlyR L131M
T4 construct: expressed in transfected cells

[5] = target: T5, α7^L131N-GlyR (Homo sapiens, UniProt P36544, L131N); assay: Agonist potency at chimeric channel (Table 9); type: cell-based; conditions: α7GlyR L131N
T5 construct: expressed in transfected cells

[6] = target: T6, α7GlyR Q79S L131G Q139L Y217F (Homo sapiens, UniProt P36544, L131G/Q139L/Q79S/Y217F); type: cell-based; conditions: read-out: Agonist potency
T6 construct: expressed in transfected cells

[7] = target: T7, α7^L131G,Q139L,Y217F-5HT3 HC (Homo sapiens, UniProt P36544, L131G/M226I/Q139L/T225I/Y217F); assay: Agonist potency at chimeric channel (Table 9); type: cell-based
T7 construct: expressed in transfected cells

[8] = target: T8, α7-GlyR (Homo sapiens, UniProt P36544); assay: Agonist potency (EC50), HEK cells expressing chimeric channel; type: cell-based
T8 construct: expressed in transfected cells; host or cells: HEK cells

[9] = target: T9, α7^W77F,Q79G,G175K-GlyR (Homo sapiens, UniProt P36544, G175K/Q79G/W77F); assay: Agonist potency at chimeric channel; type: cell-based; conditions: Table 6; read-out: Potency, a7GlyR W77F Q79G G175K
T9 construct: expressed in transfected cells

[10] = target: T10, α7^Y115F,G175K-GlyR (Homo sapiens, UniProt P36544, G175K/Y115F); assay: Agonist potency at chimeric channel; type: cell-based; conditions: Table 6; read-out: Potency, a7GlyR Y115F G175K
T10 construct: expressed in transfected cells

[11] = target: T11, α7^Q79G,Y115F,G175K-GlyR (Homo sapiens, UniProt P36544, G175K/Q79G/Y115F); assay: Agonist potency at chimeric channel; type: cell-based; conditions: Table 6; read-out: Potency, a7Gly Q79G G175K Y115F
T11 construct: expressed in transfected cells

[12] = target: T12, α7^L131G-GlyR (Homo sapiens, UniProt P36544, L131G); assay: Agonist potency at chimeric channel (Table 9); type: cell-based
T12 construct: expressed in transfected cells

[13] = target: T13, α7-5HT3 (Homo sapiens, UniProt P36544, M226I/T225I); assay: Agonist potency (EC50), HEK cells expressing chimeric channel; type: cell-based, human α7 nAChR LBD, murine 5HT3 IPD; conditions: Table 6; read-out: Potency, a7-5HT3
T13 construct: expressed in transfected cells; host or cells: HEK cells

[14] = target: T14, α7-GlyR^A298G (Homo sapiens, UniProt P36544, A298G); assay: as above; type: cell-based; conditions: read-out: Mean EC50 and SEM in parentheses, α7-GlyR^A298G
T14 construct: expressed in transfected cells; host or cells: HEK cells

[15] = target: T15, α7^L131G,Q139L-GlyR (Homo sapiens, UniProt P36544, L131G/Q139L); assay: Agonist potency at chimeric channel (Table 9); type: cell-based
T15 construct: expressed in transfected cells

[16] = target: T16, α7^L131G-5HT3 HC (Homo sapiens, UniProt P36544, L131G, form not given); assay: Agonist potency at chimeric channel (Table 9); type: cell-based
T16 construct: rows headed: Agonist potency; other: α75HT3 L131G HC; α75HT3 L131G HC; fused on or other part: 5-HT3A receptor ion pore domain at the C-terminus

[17] = target: T17, α7^Q79S,L131G,Q139L-GlyR (Homo sapiens, UniProt P36544, L131G/Q139L/Q79S); type: cell-based; conditions: read-out: Agonist potency
T17 construct: expressed in transfected cells

[18] = target: T18, α7^L131G,Y217F-GlyR (Homo sapiens, UniProt P36544, L131G/Y217F); assay: Agonist potency at chimeric channel (Table 9); type: cell-based
T18 construct: expressed in transfected cells

[19] = target: T19, α7^Y115F-GlyR G175V (Homo sapiens, UniProt P36544, G175V/Y115F); assay: Agonist potency at chimeric channel (Table 8); type: cell-based; conditions: α7GlyR Y115F G175V
T19 construct: expressed in transfected cells

[20] = target: T20, α7^Q79S,L131G-GlyR (Homo sapiens, UniProt P36544, L131G/Q79S); assay: Agonist potency at chimeric channel (Table 9); type: cell-based; conditions: α7GlyR Q79S L131G
T20 construct: expressed in transfected cells

[21] = target: T21, α7GlyR Q79G L131G (Homo sapiens, UniProt P36544, L131G/Q79G); assay: Agonist potency at chimeric channel (Table 9); type: cell-based
T21 construct: expressed in transfected cells

[22] = read-out: potency at α7^L131G,Q139L,Y217F-GlyR
[23] = α7GlyR Q79S L131G Q139L Y217F, parentheses: SEM
[24] = Table 6, read-out: Potency, a7-GlyR
[25] = α7GlyR (Table 9), parentheses: SEM, read-out: Agonist potency
[26] = α7GlyR L131G Q139L Y217F, parentheses: SEM, read-out: Agonist potency

Cc1nc2cc3c(cc2nc1-c1ccccc1)C1CNCC3C1 (stereo not shown) [Compound 770]
EC50 [1]: 34 nM | EC50 [2, 22]: 1 nM | EC50 [3]: > 300 nM | EC50 [4]: 30 nM | EC50 [5]: > 10000 nM | EC50 [6, 23]: 1 nM | EC50 [7]: 7 nM

O=S1(=O)c2cc(N3CCN4CCC3CC4)ccc2-c2cccc(F)c21 [Compound 773]
EC50 [1]: 0.5 nM | EC50 [8, 24]: 1 nM | EC50 [8, 25]: 1 nM | EC50 [2, 22]: 0.34 nM | EC50 [9]: 1.4 nM | EC50 [3]: 6 nM | EC50 [10]: 0.3 nM | EC50 [11]: 0.42 nM | EC50 ([12]; α7GlyR L131G): 0.13 nM | EC50 [4]: 0.05 nM | EC50 [5]: 0.4 nM | EC50 [7]: 2 nM | EC50 [13]: 135 nM

c1cnc2cc3c(cc2n1)[C@@H]1CNC[C@H]3C1 [Varenicline]
EC50 [14]: 250 nM | EC50 [15]: 30 nM | EC50 ([2]; read-out: Agonist potency): 1.6 nM | EC50 [16]: 40 nM | EC50 [17]: 20 nM | EC50 [18]: 30 nM | EC50 [19]: 4.6 µM | EC50 [12]: 37 nM | EC50 [6]: 3 nM

c1ccc(-c2cnc3cc4c(cc3n2)C2CNCC4C2)cc1 (stereo not shown) [Compound 765]
EC50 [8, 25]: > 100000 nM | EC50 [2, 26]: 31 nM | EC50 [20]: 24 nM | EC50 [5]: > 10000 nM | EC50 [6, 23]: 34 nM | EC50 [21]: 27 nM

O=[N+]([O-])c1cccc2c1S(=O)(=O)c1cc(N3CCN4CCC3CC4)ccc1-2 [Compound 774]
EC50 [1]: 1.3 nM | EC50 [8, 24]: 6 nM | EC50 [8, 25]: 6 nM | EC50 [2, 22]: 0.13 nM | EC50 [2, 26]: 0.18 nM | EC50 [9]: 30 nM | EC50 [3]: 2 nM | EC50 [10]: 0.78 nM | EC50 [11]: 30 nM | EC50 ([12]; α7GlyR L131G): 0.04 nM | EC50 [4]: 1 nM | EC50 [5]: 0.6 nM | EC50 [7]: 4 nM | EC50 [13]: 30 nM
